What was measured:
hERG channel [1] = target: T1, hERG channel (Homo sapiens, UniProt Q12809); assay: Automated patch clamp (Nanion Patchliner) of hERG current in CHO-hERG cells with K+ solutions; type: cell-based
hERG channel [2] = target: T1, hERG channel; assay: Automated patch clamp (Nanion Patchliner) of hERG current in CHO-hERG cells with equimolar Cs+ solutions; type: cell-based
[3] = two-way ANOVA with Dunnett's test vs control

The chains behind the UniProt entries cited, without tags or fusion partners.
UniProt Q12809, whole entry: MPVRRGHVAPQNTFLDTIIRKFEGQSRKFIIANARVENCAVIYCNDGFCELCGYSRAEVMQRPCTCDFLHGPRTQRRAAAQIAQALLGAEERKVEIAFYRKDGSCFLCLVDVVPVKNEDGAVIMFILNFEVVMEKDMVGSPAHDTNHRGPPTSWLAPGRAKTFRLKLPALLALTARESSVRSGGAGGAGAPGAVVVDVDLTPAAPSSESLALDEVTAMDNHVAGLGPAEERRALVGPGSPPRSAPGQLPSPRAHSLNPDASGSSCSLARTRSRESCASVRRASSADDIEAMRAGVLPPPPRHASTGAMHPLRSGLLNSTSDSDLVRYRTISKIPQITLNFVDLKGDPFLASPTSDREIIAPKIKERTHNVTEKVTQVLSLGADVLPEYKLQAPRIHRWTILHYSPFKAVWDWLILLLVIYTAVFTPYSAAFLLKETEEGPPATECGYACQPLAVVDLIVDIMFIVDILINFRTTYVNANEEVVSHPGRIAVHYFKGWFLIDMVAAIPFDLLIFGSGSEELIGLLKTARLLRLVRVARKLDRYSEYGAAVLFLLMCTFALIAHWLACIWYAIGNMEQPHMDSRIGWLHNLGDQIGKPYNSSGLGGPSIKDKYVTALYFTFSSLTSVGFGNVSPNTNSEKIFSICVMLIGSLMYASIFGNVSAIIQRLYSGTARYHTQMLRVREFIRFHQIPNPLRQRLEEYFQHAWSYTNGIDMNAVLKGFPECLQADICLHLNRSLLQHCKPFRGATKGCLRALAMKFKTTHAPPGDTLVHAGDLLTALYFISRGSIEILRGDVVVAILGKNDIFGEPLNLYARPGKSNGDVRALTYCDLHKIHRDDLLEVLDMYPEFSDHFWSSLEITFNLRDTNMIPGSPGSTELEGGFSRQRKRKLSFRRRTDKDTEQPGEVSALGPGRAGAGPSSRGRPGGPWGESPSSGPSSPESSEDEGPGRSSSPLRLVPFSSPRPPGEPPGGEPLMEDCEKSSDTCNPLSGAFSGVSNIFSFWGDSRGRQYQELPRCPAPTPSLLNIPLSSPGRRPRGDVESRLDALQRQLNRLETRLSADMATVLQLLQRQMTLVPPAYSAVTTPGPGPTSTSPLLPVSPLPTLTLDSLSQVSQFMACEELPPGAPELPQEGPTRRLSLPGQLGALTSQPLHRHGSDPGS

## O=C(COc1ccc(C(=O)c2cccc(Cl)c2)cc1)Nc1cccnc1
hERG channel [1]; activation, printed as log with negative sign, tail current at +40 mV
  Log(EC50): −5.8 (EC50)
hERG channel [1]; between control and 30 μM
  increase of maximal K+ step conductance: 10.1 ×
  increase of maximal K+ tail conductance: 4.9 x
hERG channel [1]; read-out: EC50 Conc., activation, tail current at +40 mV
  EC50: 1.6 µM
hERG channel [1]; tail current at +40 mV
  Hill coef.: 1.4
hERG channel [1]; tested concentration range
  effect on K+ step conductance upon treatment: strong dose-dependent increase
  effect on K+ tail conductance upon treatment: strong dose-dependent increase
hERG channel [1]; [3]
  concentration from which K+ step conductance is significantly changed: 3000 nM
  concentration from which K+ tail conductance is significantly changed: 3000 nM
hERG channel [2]; printed as log(IC50) with negative sign, maximal tail current at +40 mV, Hill fit, 22°C
  Log(IC50): −5.7
hERG channel [2]; relative IC50, tail current
  concentration corresponding to relative log (IC50): 0.3 µM
hERG channel [2]; relative instead of absolute IC50, given with negative sign, tail current
  relative log (IC50): −6.5
hERG channel [2]; tail current at +40 mV
  Hill coef.: −0.2
hERG channel [2]; tested concentration range
  effect on Cs+ step conductance upon treatment: lower compared to control at voltages below the reversal potential (0 mV) and higher when tested above the reversal potential
  effect on Cs+ tail conductance upon treatment: decreased upon treatment
